Test results from PubChem BioAssay AID2205 (University of Pittsburgh Molecular Library Screening Center, 2009).
The entries are a selection whose mix differs from that of the whole data set. Calls of active or inactive are those of the source.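 Rule for the calls: active = plate Z-score above 3 for both tubulin-high and condensed-nucleus cell shares, with cell loss under 80%, at 10 µM; inactive = the rest, inconclusive results apart.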

Experiment: microtubule stabilizers in HeLa cells, primary screen, imaging, high-content imaging (AID 2205)
Settings: HeLa tubulin immunostaining HCS, 24 h; at 10 µM; hits give high values; share of cells brighter than vehicle mean+2SD

SMILES | % tubulin-high responders
CCOP1(=S)c2c(C)nn(CCC#N)c2N=C(c2ccc(F)cc2)N1C (stereo not drawn) | inactive: 2.24%
CC1=NCCc2c1[nH]c1ccccc21.O=[N+]([O-])c1cc([N+](=O)[O-])c(O)c([N+](=O)[O-])c1 | inactive: 5.16%
O=[N+]([O-])c1ccc2c(c1)nnn2O | inactive: 3.11%
COc1cc(C(=O)NCC2(N3CCOCC3)CCCCC2)cc(Cl)c1OC(C)C | inactive: 2%
Cc1cc(C)cc(OP(C)(=O)Nc2ccc(C)cc2C)c1 (stereo not drawn) | inactive: 1.33%
Cc1cccc(OCC(=O)OC2CN3CCC2CC3)c1 (stereo not drawn) | inactive: 1.84%
CCOC(=O)c1ccc(NP(C)(=O)Oc2cc(C)cc(C)c2)cc1 (stereo not drawn) | active: 17.9%
Cc1ccc(NCCc2c([N+](=O)[O-])cc([N+](=O)[O-])cc2[N+](=O)[O-])cc1 | inactive: 3.98%
CP(=O)(Nc1cccc(Br)c1)Oc1ccccc1 (stereo not drawn) | inactive: 4.52%
Cc1cc(C)cc(OP(C)(=O)Nc2ccccn2)c1 (stereo not drawn) | inactive: 2.43%
Cc1ccc(C)c(NP(C)(=O)Oc2ccccc2)c1 (stereo not drawn) | inactive: 2.76%
CCOP(=O)(Nc1cccc2ccccc12)OCC | inactive: 3.4%
Cc1c2c(nc3ccccc13)SC(C(Cl)Cl)C2 (stereo not drawn) | inactive: 3.17%
CCN(CC)CCCOC(=O)C(O)(c1ccccc1)c1ccccc1 | inactive: 3.99%
Cc1cc(=O)[nH]c(N[N+](=O)[O-])n1 | inactive: 3.04%
O=C(OC1CN2CCC1CC2)C12CC3CC(CC(C3)C1)C2 (stereo not drawn) | inactive: 5.29%
COc1ccc2nc(NP(=O)(c3ccccc3)c3ccccc3)sc2c1 | inactive: 1.86%
COc1ccc(N/C(=N/P(=O)(N2CCOCC2)N2CCOCC2)N2CCOCC2)cc1 | inactive: 1.39%
Cc1cccc(C)c1OP(C)(N)=O (stereo not drawn) | inactive: 3.25%
CC(C)(C)c1ccc(OP(C)(=O)Nc2ccc(SC(F)(F)F)cc2)cc1 (stereo not drawn) | inactive: 1.96%
Cc1ccc2nc3c(c(C)c2c1)CC(C(Cl)Cl)S3 (stereo not drawn) | inactive: 4.88%
O=[N+]([O-])c1ccc2c(c1)C=Nc1ccccc1O2 | inactive: 7.25%
ClCCSc1nnc(-c2cccnc2)o1 | inactive: 2.14%
CCOC(=O)c1ccc(NP(C)(=O)Oc2ccccc2)cc1 (stereo not drawn) | inactive: 2.15%

SMILES | % tubulin-high responders
Cc1ccc(NP(C)(=O)Oc2ccccc2)c(C)c1 (stereo not drawn) | inactive: 3.47%
COc1ccccc1OP(C)(=O)Nc1ccc(C)cc1 (stereo not drawn) | inactive: 7.46%
O=[N+]([O-])c1cc([N+](=O)[O-])c(-c2ccn[nH]2)s1 | inactive: 2.94%
COc1ccc(OP(C)(=O)Nc2cccc(F)c2)cc1 (stereo not drawn) | inactive: 2.18%
CCN(CC)C(=S)SC(NC=O)C(Cl)(Cl)Cl (stereo not drawn) | inactive: 2.47%
COc1ccccc1OP(C)(=O)Nc1cc(Cl)ccc1C (stereo not drawn) | inactive: 3.62%
CC(C)NC(=O)NP(=O)(Oc1ccccc1)Oc1ccccc1 | inactive: 2.4%
Cc1cc(C)cc(OP(C)(N)=O)c1 (stereo not drawn) | inactive: 3.46%
Cc1cc(SC(NC(=O)c2ccccc2)C(Cl)(Cl)Cl)nc(C(C)C)n1 (stereo not drawn) | inactive: 7.1%
CP(=S)(Nn1cnnc1)Oc1ccccc1 (stereo not drawn) | inactive: 2.71%
COc1ccccc1OP(C)(=O)Nc1ccccc1 (stereo not drawn) | inactive: 1.01%
O=P(Nc1ccccn1)(c1cccc2ccccc12)c1cccc2ccccc12 | inactive: 5.46%
Cc1cc(SC(NC=O)C(Cl)(Cl)Cl)ncn1 (stereo not drawn) | inactive: 2.3%
CP(=O)(Nc1ccccc1Br)Oc1ccccc1 (stereo not drawn) | inactive: 2.62%
CP(=O)(Oc1ccccc1)OC(c1ccccc1)C(F)(F)F (stereo not drawn) | inactive: 4.59%
Cc1cccc(C)c1OP(C)(=O)Nc1ccc(SC(F)(F)F)cc1 (stereo not drawn) | inactive: 4.23%
COP1(=S)c2c(C)nn(CCC#N)c2N=C(c2ccc(F)cc2)N1C (stereo not drawn) | inactive: 1.87%
Cc1cc(C)cc(OP(C)(=O)Nc2ccc(SC(F)(F)F)cc2)c1 (stereo not drawn) | inactive: 4.45%
O=C(COc1ccccc1)OC1CN2CCC1CC2 (stereo not drawn) | inactive: 1.45%
CP(=O)(NC(=O)Nc1ccccc1)Oc1ccccc1 (stereo not drawn) | inactive: 4.49%
CCOP(C)(=S)SCC(=O)NC(C)C(=O)O (stereo not drawn) | inactive: 2.98%
CCOC(=O)c1ccc(NP(C)(=O)Oc2ccc(OC)cc2)cc1 (stereo not drawn) | inactive: 3.08%
CCC(C)N(CC(C)C)C(=S)SC(NC(C)=O)C(Cl)(Cl)Cl (stereo not drawn) | inactive: 6.01%
CP(=O)(Nc1ccccn1)Oc1ccc(Cl)cc1 (stereo not drawn) | inactive: 1.31%
